From US9018200B2, “Substituted piperidinyl compounds useful as GPR119 agonists” (Merck Sharp & Dohme Corp., priority 2011, dated 2015)

Sequences of proteins named here, by UniProt entry; tags and fusion partners are left off. Residues count along the entry.
UniProt Q8TDV5, 1-308 limits assumed: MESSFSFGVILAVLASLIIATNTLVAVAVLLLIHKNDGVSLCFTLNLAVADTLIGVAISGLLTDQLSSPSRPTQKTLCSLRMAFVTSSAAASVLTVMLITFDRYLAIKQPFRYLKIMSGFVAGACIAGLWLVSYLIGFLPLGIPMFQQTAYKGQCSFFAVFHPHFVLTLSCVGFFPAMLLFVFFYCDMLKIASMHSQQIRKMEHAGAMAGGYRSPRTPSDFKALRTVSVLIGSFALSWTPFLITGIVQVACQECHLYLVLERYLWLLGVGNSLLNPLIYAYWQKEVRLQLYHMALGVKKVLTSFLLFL

Target: human GPR119 (Homo sapiens, UniProt Q8TDV5)
Assay: Measurement of GPR119 signaling (cAMP assay) in HEK 293 cells stably transfected with human GPR119
Settings: read-out: Human GPR119 EC50; table of Examples 5-56
Source text: Measurement of GPR119 Signaling (Cyclic AMP (cAMP) Assay)
Human embryonic kidney (HEK) 293 cell lines stably transfected with human GPR119 were maintained in Dulbecco's Modified Eagle Medium (DMEM) containing fetal bovine serum (FBS), penicillin-streptomycin, HEPES buffer (4-(2-hydroxyethyl)-1-piperazineethane sulfonic acid), and hygromycin. For the cAMP assay, the transfected cells were harvested using a non-enzymatic cell dissociation solution (GIBCO 2672), pelleted and resuspended in stimulation buffer (DMEM, 25 mM HEPES, 0.1% bovine serum albumin (BSA), pH 7.4 in the presence of 100 μM phosphodiesterase inhibitors). The adenylate cyclase assay was constructed following the LANCE™ cAMP Kit (Perkin Elmer, AD0264) instructions.
Briefly, cells with Alexa Fluor® 647-anti cAMP antibody were incubated with 10 point series diluted test article in stimulation buffer with a final concentration of 2.5% DMSO for 45 minutes. […] The assay was performed in duplicate in a 384 well plate for duplicate plates and fluorescence was measured at 665 nm. Basal activity was determined using a DMSO control and maximum response was defined as cAMP stimulation produced by an internal agonist control. Standard cAMP concentrations were assayed concurrently for conversion of fluorescence signal to cAMP level. The data was analyzed using 4-parameter curve fit in Microsoft Excel. […]

SMILES: CS(=O)(=O)c1ccc(OCC[C@@H]2C[C@@H]2C2CCN(CC(F)(F)C(F)F)CC2)cc1
- EC50: 45.4 nM

SMILES: CC(F)(F)CN1CCC([C@H]2C[C@H]2CCOc2ccc(C(=O)NC3CC3)c(F)c2)CC1
- EC50: 45.1 nM
